Reference: patent US8026252B2 (priority 2005, dated 2011)

Chains of the proteins cited; added tags and fusions are not shown.
UniProt P35372, whole entry: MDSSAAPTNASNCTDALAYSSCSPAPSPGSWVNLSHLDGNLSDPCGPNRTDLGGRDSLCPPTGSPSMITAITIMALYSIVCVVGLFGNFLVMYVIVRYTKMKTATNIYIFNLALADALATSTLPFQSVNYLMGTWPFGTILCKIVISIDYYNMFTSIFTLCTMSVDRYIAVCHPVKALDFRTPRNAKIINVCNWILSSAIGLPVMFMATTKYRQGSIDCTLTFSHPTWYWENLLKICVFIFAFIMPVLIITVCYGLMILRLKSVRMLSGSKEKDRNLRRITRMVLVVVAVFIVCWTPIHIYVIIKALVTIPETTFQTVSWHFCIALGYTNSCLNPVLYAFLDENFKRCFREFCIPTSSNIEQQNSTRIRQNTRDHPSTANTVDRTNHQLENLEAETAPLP

Molecular target: T1, human μ opioid receptor (Homo sapiens, UniProt P35372)
T1 construct: expressed in transfected cells
Assay: biochemical
Assay type: binding
Settings: [3H]DAMGO (μ)

Compound: CC(Cc1ccc(-c2ccccc2)cc1)NC(=O)c1ccc2c(c1)[C@@]1(C)CCN(CC3CC3)C(C2)[C@@H]1C (stereo partly shown) [Example 47]
- Ki: 7.8 ± 0.99 nM
